This passage reports IC50 and Kd results from patent publication US20230151110A1 (HUTCHISON MEDIPHARMA, published 2023).

By UniProt entry, the sequences of proteins in these tests, tags left out. Residues count along the entry.
UniProt Q08722, 19-139 limits assumed: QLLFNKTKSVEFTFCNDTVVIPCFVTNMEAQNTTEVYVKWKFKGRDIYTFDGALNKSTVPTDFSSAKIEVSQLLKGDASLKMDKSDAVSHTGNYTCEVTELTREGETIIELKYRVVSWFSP

pIC50, pKd: −log10 of the molar value.

In experiment [1] the target is recombinant protein hCD47-Fc containing the extracellular domain of human CD47 fused with the Fc fragment of human IgG (human) (UniProt Q08722). Nature of the experiment: competition ELISA: hCD47-Fc coated, SIRPα-His 2.5 µg/ml as competitor ligand, anti-His-HRP.
The target of experiment [2] is human CD47-His fusion protein (human) (UniProt Q08722). Nature of the experiment: SPR (Biacore T200): antibody captured by anti-human Fc on CM5, human CD47-His as analyte, 1:1 Langmuir fit.

control antibody Hu5F9: the pIC50 in experiment [1] was 8.81. This substance also gave a pKd in experiment [2] of 8.70.
